The target in this assay is SARS-CoV-2 M^pro (Severe acute respiratory syndrome coronavirus 2, UniProt P0DTD1). Briefly: biochemical. The settings on record: FRET assay, 50 nM M^pro, 10 min preincubation.

What is called IC50 is the concentration that gives 50% inhibition. Low readings indicate higher potency, high ones lower potency. Consider `Cc1coc2c1C(=O)C(=O)c1c-2ccc2c(C)cccc12` [Tanshinone I], for which the IC50 is above 10 µM.

These data come from PMC9959258, “Discovery of Polyphenolic Natural Products as SARS-CoV-2 M^pro Inhibitors for COVID-19” (Pharmaceuticals, 2023).
